{"sequences": {"note": "The chains behind the UniProt entries cited, without tags or fusion partners.", "UniProt Q92830, whole entry, looked up": "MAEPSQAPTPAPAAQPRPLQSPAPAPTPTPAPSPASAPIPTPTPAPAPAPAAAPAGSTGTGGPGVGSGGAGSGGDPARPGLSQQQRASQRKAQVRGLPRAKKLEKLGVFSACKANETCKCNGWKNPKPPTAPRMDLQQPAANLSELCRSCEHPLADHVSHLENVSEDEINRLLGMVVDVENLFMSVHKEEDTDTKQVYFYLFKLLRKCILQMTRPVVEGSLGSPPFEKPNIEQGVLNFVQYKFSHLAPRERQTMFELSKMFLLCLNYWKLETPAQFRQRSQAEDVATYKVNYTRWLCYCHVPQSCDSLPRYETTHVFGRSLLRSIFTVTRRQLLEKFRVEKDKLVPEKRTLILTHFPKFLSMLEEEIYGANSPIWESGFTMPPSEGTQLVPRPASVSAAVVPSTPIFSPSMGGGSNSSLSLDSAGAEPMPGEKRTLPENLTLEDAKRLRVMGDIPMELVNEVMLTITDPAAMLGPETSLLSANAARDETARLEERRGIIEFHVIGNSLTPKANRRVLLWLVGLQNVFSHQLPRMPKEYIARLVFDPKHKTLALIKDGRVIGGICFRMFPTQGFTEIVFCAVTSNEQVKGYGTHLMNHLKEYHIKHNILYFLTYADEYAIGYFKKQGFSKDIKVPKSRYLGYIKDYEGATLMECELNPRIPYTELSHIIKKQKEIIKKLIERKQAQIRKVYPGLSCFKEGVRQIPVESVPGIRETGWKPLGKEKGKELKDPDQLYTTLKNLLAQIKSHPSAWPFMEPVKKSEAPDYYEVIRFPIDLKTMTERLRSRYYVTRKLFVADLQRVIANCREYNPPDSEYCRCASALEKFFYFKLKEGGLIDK"}, "source": "PubChem BioAssay AID504327", "about": "(National Center for Advancing Translational Sciences (NCATS), 2011)", "note": "Only a part is listed here, and it is no random draw. Records with an inconclusive call do not appear. The source made the active and inactive calls. The call rests on the fitted dose curve; in most records, active means well fitted inhibition curve with a large enough effect; inconclusive means small, poorly fitted or top-dose-only effect, or another doubt; inactive means no such curve, though single readings can be large or run the other way. On the % scale 0 is the no-effect control and ±100 the full control effect."}
{"target": "Histone acetyltransferase KAT2A (Homo sapiens) (UniProt Q92830)", "assay": "qHTS Assay for Inhibitors of GCN5L2", "details": "GCN5L2 HAT assay, ThioGlo1 CoA-SH fluorescence; series mostly up to 58.9 µM; activity change, negative = inhibition: at the top concentration"}
{"smiles": "Cc1ccc(OP(=O)(Nc2ccc([N+](=O)[O-])cn2)Oc2ccc(C)cc2)cc1", "activity change, negative = inhibition": "inactive: 3.39%"}
{"smiles": "CC(C)c1ccc(OP(=O)(Nc2ccccn2)Oc2ccccc2F)cc1", "note": "(stereo not given)", "activity change, negative = inhibition": "inactive: -9.3%"}
{"smiles": "ClCCSc1nnc(-c2cccnc2)o1", "activity change, negative = inhibition": "inactive: 2.42%"}
{"smiles": "O=[N+]([O-])c1cc([N+](=O)[O-])c(-c2ccn[nH]2)s1", "activity change, negative = inhibition": "inactive: -4.38%"}
{"smiles": "CC(C)NC(=O)NP(=O)(Oc1ccccc1)Oc1ccccc1", "activity change, negative = inhibition": "inactive: -8.98%"}
{"smiles": "CCN(CC)C(=S)SC(NC=O)C(Cl)(Cl)Cl", "note": "(stereo not given)", "activity change, negative = inhibition": "inactive: -4.74%"}
{"smiles": "Cc1cc(=O)[nH]c(N[N+](=O)[O-])n1", "activity change, negative = inhibition": "inactive: -5.95%"}
{"smiles": "O=C(OC1CN2CCC1CC2)C12CC3CC(CC(C3)C1)C2", "note": "(stereo not given)", "activity change, negative = inhibition": "inactive: -2.34%"}
{"smiles": "Cc1c2c(nc3ccccc13)SC(C(Cl)Cl)C2", "note": "(stereo not given)", "activity change, negative = inhibition": "inactive: -2.31%"}
{"smiles": "COc1cc(I)ccc1[As](=O)(O)O", "activity change, negative = inhibition": "inactive: 2.15%"}
{"smiles": "COc1ccc2nc(NP(=O)(c3ccccc3)c3ccccc3)sc2c1", "activity change, negative = inhibition": "inactive: -6.81%"}
{"smiles": "COc1ccc(N/C(=N/P(=O)(N2CCOCC2)N2CCOCC2)N2CCOCC2)cc1", "activity change, negative = inhibition": "inactive: -3.93%"}
{"smiles": "NC(=O)c1cc([N+](=O)[O-])cc([N+](=O)[O-])c1N", "activity change, negative = inhibition": "inactive: -17.1%"}
{"smiles": "Cc1ccc(N/C(=N/P(=O)(N2CCOCC2)N2CCOCC2)N2CCOCC2)cc1", "activity change, negative = inhibition": "inactive: 0.646%"}
{"smiles": "Cc1ccc(OP(=O)(Nc2nccs2)Oc2ccc(C)cc2)cc1", "activity change, negative = inhibition": "inactive: 1.48%"}
{"smiles": "COc1ccccc1OP(=O)(Nc1ccc(C)cn1)Oc1ccccc1OC", "activity change, negative = inhibition": "inactive: -0.403%"}
{"smiles": "CN1CCCC(OC(=O)C(c2ccccc2)c2ccccc2)C1", "note": "(stereo not given)", "activity change, negative = inhibition": "inactive: 1.5%"}
{"smiles": "Clc1ccc(Cl)c(NC2=NCC(CBr)S2)c1", "note": "(stereo not given)", "activity change, negative = inhibition": "inactive: -11.4%"}
{"smiles": "Nc1cc(N)c2nonc2c1[N+](=O)[O-]", "activity change, negative = inhibition": "inactive: -15.4%"}
{"smiles": "O=C(NC(Sc1ccncn1)C(Cl)(Cl)Cl)c1ccccc1", "note": "(stereo not given)", "activity change, negative = inhibition": "inactive: -0.159%"}
{"smiles": "Cc1c2non([O-])c-2c(C)[n+](=O)[n+]1[O-]", "activity change, negative = inhibition": "inactive: -4.21%"}
{"smiles": "Oc1ccccc1CNc1ccccn1", "activity change, negative = inhibition": "inactive: -9.3%"}
{"smiles": "CC(=O)Nc1ccc([As](=O)(O)O)cc1", "activity change, negative = inhibition": "inactive: 2.53%"}
{"smiles": "O=C(O)c1ccccc1[As](=O)(O)O", "activity change, negative = inhibition": "inactive: 2.46%"}
{"smiles": "O=P(Nc1nc2ccc(Cl)cc2s1)(c1ccccc1)c1ccccc1", "activity change, negative = inhibition": "inactive: -5.69%"}
{"smiles": "Cc1ccc(NP(=O)(Oc2ccccc2F)Oc2ccccc2F)nc1", "activity change, negative = inhibition": "inactive: 1.56%"}
{"smiles": "Cc1cc(SC(NC(=O)c2ccc(F)cc2)C(Cl)(Cl)Cl)ncn1", "note": "(stereo not given)", "activity change, negative = inhibition": "inactive: 41.4%"}
{"smiles": "CCOP(=O)(Nc1ccccc1)OCC", "Potency": "inactive"}
{"smiles": "O=[N+]([O-])c1cc([N+](=O)[O-])c(CCN2CCOCC2)c([N+](=O)[O-])c1", "activity change, negative = inhibition": "inactive: -17%"}
{"smiles": "CCN(N=Nc1nonc1N)c1nonc1N", "activity change, negative = inhibition": "inactive: 0.964%"}
{"smiles": "Nc1cccc2ccc([As](=O)(O)O)cc12", "activity change, negative = inhibition": "inactive: -17.2%"}
{"smiles": "O=C(Nc1cc([As](=O)(O)O)ccc1O)c1ccccc1", "activity change, negative = inhibition": "inactive: 19.7%"}
{"smiles": "CC(C)(C)C(=O)NC(Sc1ccncn1)C(Cl)(Cl)Cl", "note": "(stereo not given)", "activity change, negative = inhibition": "inactive: 7.73%"}
{"smiles": "O=[N+]([O-])c1ncn(CCn2ncnc2[N+](=O)[O-])n1", "activity change, negative = inhibition": "inactive: -1.6%"}
{"smiles": "O=[N+]([O-])c1cccc(NC2=NCC(CBr)S2)c1", "note": "(stereo not given)", "activity change, negative = inhibition": "inactive: -4.61%"}
{"smiles": "O=C(O)CNc1ccc([As](=O)(O)O)cc1", "activity change, negative = inhibition": "inactive: -6.49%"}
{"smiles": "COc1ccc(C2=NCC(CBr)S2)cc1", "note": "(stereo not given)", "activity change, negative = inhibition": "inactive: -7.28%"}
{"smiles": "CC(=O)N1C2C3N(C(C)=O)C1C1N(C(C)=O)C(C(N1C(C)=O)N3C(C)=O)N2C(C)=O", "activity change, negative = inhibition": "inactive: 4.58%"}
{"smiles": "O=[N+]([O-])c1cccc2n[nH]nc12", "activity change, negative = inhibition": "inactive: -3.63%"}
{"smiles": "O=[N+]([O-])c1cc([N+](=O)[O-])c(CCNc2ccccc2)c([N+](=O)[O-])c1", "activity change, negative = inhibition": "inactive: -10.4%"}
{"smiles": "CCc1nc2c(n1)c1c(non1O)c1c2no[n+]1[O-]", "activity change, negative = inhibition": "inactive: 1.17%"}
{"smiles": "Cc1ccc(NP(=O)(Oc2ccccc2)Oc2ccccc2)nc1", "activity change, negative = inhibition": "inactive: -4.23%"}
{"smiles": "C[N+]1=C2C=CC=CC=C2SC12C([N+](=O)[O-])=CC([N+](=O)[O-])=C[C-]2[N+](=O)[O-]", "note": "(stereo not given)", "activity change, negative = inhibition": "inactive: 0%"}
{"smiles": "Nc1ccc([As](=O)(O)c2ccc(N)cc2)cc1", "activity change, negative = inhibition": "inactive: -2.41%"}
{"smiles": "CCN(/C(=N/P(=O)(N1CCOCC1)N1CCOCC1)N1CCOCC1)c1ccc(OC)cc1", "activity change, negative = inhibition": "inactive: -1.84%"}
{"smiles": "CC(C)=N/N=C(\\N)N[N+](=O)[O-]", "activity change, negative = inhibition": "inactive: -5.5%"}
{"smiles": "CC1CCN(C(=O)Oc2c(Cl)cc(Cl)c3cccnc23)CC1", "activity change, negative = inhibition": "inactive: -7.4%"}
{"smiles": "CC(=O)C1=CCCC2CCC1N2", "note": "(stereo not given)", "Potency": "inactive"}
{"smiles": "O=P(Nc1nccs1)(c1ccccc1)c1ccccc1", "activity change, negative = inhibition": "inactive: -1.75%"}
{"smiles": "CC(C)C(=O)NC(Sc1ccccc1)C(Cl)(Cl)Cl", "note": "(stereo not given)", "activity change, negative = inhibition": "inactive: 41%"}
{"smiles": "CCC(C)(OOC(C)(C)C)OOC(C)(C)C", "activity change, negative = inhibition": "inactive: 13.7%"}
{"smiles": "c1nnnn1CCn1cnnn1", "activity change, negative = inhibition": "inactive: -3.13%"}
{"smiles": "CN(C)C1(CNC(=O)c2ccc(Cl)c(S(N)(=O)=O)c2)CCCCC1", "activity change, negative = inhibition": "inactive: -1.34%"}
{"smiles": "O=P(Nc1ccccn1)(c1ccc(Br)cc1)c1ccc(Br)cc1", "activity change, negative = inhibition": "inactive: -4.81%"}
{"smiles": "C[C@H]1OP(=O)(Oc2ccccc2)[C@H](O)[C@H](O)[C@H]1N=[N+]=[N-]", "note": "(stereo not given in full)", "activity change, negative = inhibition": "inactive: -28.4%"}
{"smiles": "O=P(Nc1nc2ccccc2s1)(c1ccccc1)c1ccccc1", "activity change, negative = inhibition": "inactive: -5.71%"}
{"smiles": "CN(C(=O)Cc1ccccc1)[C@H]1CC[C@@]2(CCCO2)C[C@@H]1N1CCCC1", "activity change, negative = inhibition": "inactive: 2.66%"}
{"smiles": "O=[N+]([O-])c1ncn(CCn2cnc([N+](=O)[O-])n2)n1", "activity change, negative = inhibition": "inactive: -1.86%"}
{"smiles": "CC(=O)NC(SC(=S)N(C)C)C(Cl)(Cl)Cl", "note": "(stereo not given)", "activity change, negative = inhibition": "inactive: -9.5%"}
{"smiles": "O=[N+]([O-])c1ccc(O)c(/C=N/Nc2ccc([N+](=O)[O-])cc2[N+](=O)[O-])c1", "activity change, negative = inhibition": "inactive: -4.02%"}
